Melting point values, as collected for the OPERA models

Values as listed in the OPERA 2.9 repository of K. Mansouri.

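These are experimental values that the OPERA curators gathered from public databases to train and test their QSAR models. The files give a single number for a compound and property, which may rest on several reports. Conditions of the individual experiments are not part of the data. The measured form (salt, isomer or mixture) is not always the one drawn. Unmarked limits or estimates from the upstream databases cannot be ruled out.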

Melting points are in °C.
Cells with "n/a" have no entry in this list.
"via" names the databases from which the curators took the value.

structure (SMILES) | name | mp (°C) | via
Nc1nnc(Cc2ccccc2)s1 | 5-benzyl-1,3,4-thiadiazol-2-amine | 174 | OCHEM
O=C(O)CCCN1C(=O)CSC1=S | 4-(4-Oxo-2-sulfanylidene-1,3-thiazolidin-3-yl)butanoic acid | 125 | OCHEM
CC(=O)c1cc[n+](C)cc1.Cc1ccc(S(=O)(=O)[O-])cc1 | n/a | 164 | eChemPortal
Nc1cccc(-n2ccnc2)c1 | 3-(1H-imidazol-1-yl)aniline | 113 | OCHEM
O=Cc1sc(N2CCCCC2)nc1Cl | 4-Chloro-2-(piperidin-1-yl)-1,3-thiazole-5-carbaldehyde | 90 | OCHEM
O=C(O)c1cc(-c2cccc3ccccc23)nc2ccccc12 | 2-(1-naphthyl)quinoline-4-carboxylic acid | 226 | OCHEM
O=[N+]([O-])c1cc(I)ccc1Cl | 1-Chloro-4-iodo-2-nitrobenzene | 72 | OCHEM
C=CC(=O)OCCCCCCOc1ccc(C(=O)Oc2ccc(OC(=O)c3ccc(OCCCCCCOC(=O)C=C)cc3)c(C)c2)cc1 | n/a | 74.7 | eChemPortal
Brc1ccc(Oc2ccccc2)cc1Br | 3,4-Dibromodiphenyl ether | 20 | OCHEM
O=C(O)c1ccn(-c2ccccc2)n1 | 1-Phenyl-1H-pyrazole-3-carboxylic acid | 139 | OCHEM
Cc1nn(-c2ccccc2)c(Cl)c1CCl | 5-chloro-4-(chloromethyl)-3-methyl-1-phenyl-1H-pyrazole | 38 | OCHEM
Cc1ccc2cc(CCl)c(Cl)nc2c1 | 2-chloro-3-(chloromethyl)-7-methylquinoline | 133 | OCHEM
CC(=O)c1cc(C)cc(C(C)=O)c1O | 1,1'-(2-Hydroxy-5-methyl-1,3-phenylene)di(ethan-1-one) | 51 | OCHEM
Cc1cc(C)n2c(C(=O)O)nnc2n1 | n/a | 179 | OCHEM
Cc1ccc(S(=O)(=O)NC(=O)Nc2cccc(OS(=O)(=O)c3ccc(C)cc3)c2)cc1 | Pergafast 201 | 157.7 | eChemPortal
C=CN1CC(C)OC1=O (stereo not given) | 3-Ethenyl-5-methyl-1,3-oxazolidin-2-one | 19 | eChemPortal
CCCC1CCC(c2ccc(OCC)c(F)c2F)CC1 (stereo not given) | 1-Ethoxy-2,3-difluoro-4-(4-propylcyclohexyl)benzene | 60.6 | eChemPortal
N/C(=N\O)c1cccc([N+](=O)[O-])c1 | m-Nitrobenzamide oxime | 183 | OCHEM
Nc1ccc(Br)cc1O | 2-Amino-5-bromophenol | 139 | OCHEM
O=c1ccc2cc(S(=O)(=O)Cl)ccc2o1 | Coumarin-6-sulfonyl chloride | 118 | OCHEM
CCC(CCCO)(C(=O)O)C(=O)O | 2-Ethyl-2-(3-hydroxypropyl)propanedioic acid | 132 | eChemPortal
O=C1NC(=O)C2(CCc3ccccc32)N1 (stereo not given) | n/a | 230 | OCHEM
CCCCCCCCCCCCCCOC(=O)/C=C/C(=O)OCCCCCCCCCCCCCC | 2-Butenedioic acid (2E)-, 1,4-ditetradecyl ester | 45 | eChemPortal
O=C(O)c1ccc(NS(=O)(=O)c2cccc([N+](=O)[O-])c2)cc1 | 4-(3-Nitro-benzenesulfonylamino)-benzoic acid | 268 | OCHEM
CN(C)C(=O)c1cc(N)ccc1Cl | 5-Amino-2-chloro-N,N-dimethylbenzamide | 159 | OCHEM
N#CCc1nnc2n1CCCCC2 | n/a | 114 | OCHEM
CCC1(C)NC(=O)N(N)C1=O (stereo not given) | 3-Amino-5-ethyl-5-methylimidazolidine-2,4-dione | 154 | OCHEM
CCOC(=O)CNC(=O)COC(=O)c1ccccc1OC(C)=O | n/a | 68.5 | OCHEM
FC(F)(F)C(F)(F)C(F)(F)C(F)(F)C(F)(F)C(F)(F)C(F)(F)I | 1-Iodopentadecafluoroheptane | -8 | ChemicalBook
O=C(Nc1ccccc1)C(Cl)c1ccccc1 (stereo not given) | 2-chloro-N,2-diphenylacetamide | 151 | OCHEM
NS(=O)(=O)c1cccnc1 | pyridine-3-sulfonamide | 110 | OCHEM
CCOc1cc(C=O)cc(Cl)c1O | 3-chloro-5-ethoxy-4-hydroxybenzaldehyde | 146 | OCHEM
c1coc(Cc2ccco2)c1 | Furan, 2,2'-methylenebis- | -26 | PubChem
Oc1ccc(-n2cnnn2)cc1 | 4-Tetrazol-1-yl-phenol | 210 | OCHEM

The 3 highest values of mp among the entries above:

{"smiles": "O=C(O)c1ccc(NS(=O)(=O)c2cccc([N+](=O)[O-])c2)cc1", "name": "4-(3-Nitro-benzenesulfonylamino)-benzoic acid", "mp (°C)": "268", "via": "OCHEM"}
{"smiles": "O=C1NC(=O)C2(CCc3ccccc32)N1", "stereo": "stereo not given", "mp (°C)": "230", "via": "OCHEM"}
{"smiles": "O=C(O)c1cc(-c2cccc3ccccc23)nc2ccccc12", "name": "2-(1-naphthyl)quinoline-4-carboxylic acid", "mp (°C)": "226", "via": "OCHEM"}